From PubChem BioAssay AID873 (PCMD, 2007)
The entries are a selection whose mix differs from that of the whole data set. Some salts or complexes appear as unconnected parts, following the source record. Calls of active or inactive are those of the source.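 The calls were made as follows: active = inhibition of 40% or more; inactive = the rest.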

Amino acid sequences for entries named in this document (tags omitted). Residues count along the entry.
UniProt Q9Y337, 67-293 limits assumed: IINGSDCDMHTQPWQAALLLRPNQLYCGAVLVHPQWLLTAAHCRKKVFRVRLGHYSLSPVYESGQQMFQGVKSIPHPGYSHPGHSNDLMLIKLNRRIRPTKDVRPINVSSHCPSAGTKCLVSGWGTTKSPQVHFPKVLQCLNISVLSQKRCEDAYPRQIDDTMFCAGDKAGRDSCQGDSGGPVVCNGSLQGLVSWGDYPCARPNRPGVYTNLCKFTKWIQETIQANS

target: Kallikrein-5 (Homo sapiens) (UniProt Q9Y337); test: human KLK5 protease inhibitors, primary screen, biochemical, 1536-well (AID 873); conditions: recombinant hK5, fluorogenic AMC substrate cleavage; at 5 µM; stronger effect = higher value;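 also: 0% = enzyme controls without compound and 100% = no-enzyme blanks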

Compound	inhibition
CP(=O)(Nc1cccc(Br)c1)Oc1ccccc1 (configuration not stated)	inactive: 2.58%
Cc1cc(C)cc(OP(C)(=O)Nc2ccccn2)c1 (configuration not stated)	inactive: -1.28%
Cc1ccc(C)c(NP(C)(=O)Oc2ccccc2)c1 (configuration not stated)	inactive: -9.38%
Cc1cc(C)cc(OP(C)(=O)Nc2ccc(C)cc2C)c1 (configuration not stated)	inactive: -5.67%
CCOC(=O)c1ccc(NP(C)(=O)Oc2cc(C)cc(C)c2)cc1 (configuration not stated)	inactive: -23.1%
COc1ccccc1OP(C)(=O)Nc1cccc(Br)c1 (configuration not stated)	inactive: 2.11%
CC1=NCCc2c1[nH]c1ccccc21.O=[N+]([O-])c1cc([N+](=O)[O-])c(O)c([N+](=O)[O-])c1	inactive: 20.6%
O=C(O)c1cccc(Nc2c([N+](=O)[O-])cc([N+](=O)[O-])cc2[N+](=O)[O-])c1	inactive: -0.82%
CP(=O)(Nc1ccc(SC(F)(F)F)cc1)Oc1ccccc1 (configuration not stated)	inactive: -21.3%
CCCOc1ccc(NP(C)(=O)Oc2ccc(Cl)cc2)cc1 (configuration not stated)	inactive: -2.43%
COc1ccccc1OP(C)(=O)Nc1c(C)cccc1C (configuration not stated)	inactive: -6.99%
CN1CCCCC1COC(=O)C1(O)c2ccccc2CCc2ccccc21 (configuration not stated)	inactive: -5.34%
O=[N+]([O-])c1cc([N+](=O)[O-])c(Nc2nnnn2CCO)c([N+](=O)[O-])c1	inactive: 0.72%
CCOC(=O)C(CC)C1=NC(C)(C)Cc2ccccc21.O=[N+]([O-])c1cc([N+](=O)[O-])c(O)c([N+](=O)[O-])c1 (configuration not stated)	inactive: -0.54%
Cc1nc2ccc3ccccc3c2s1.O=[N+]([O-])c1cc([N+](=O)[O-])c(O)c([N+](=O)[O-])c1	inactive: -13.9%
O=[N+]([O-])c1cc([N+](=O)[O-])c(-n2nnc3ccccc32)c([N+](=O)[O-])c1	inactive: 0.36%
CP(=O)(Nc1ccccn1)Oc1ccc(Cl)cc1 (configuration not stated)	inactive: -2.2%
CCOP(C)(=S)SCC(=O)NC(C)C(=O)O (configuration not stated)	inactive: -13.9%
CCOC(=O)c1ccc(NP(C)(=O)Oc2ccc(OC)cc2)cc1 (configuration not stated)	inactive: -7.84%
CCc1ccc(OP(C)(=O)N2CCN(c3ccc([N+](=O)[O-])cc3)CC2)cc1 (configuration not stated)	inactive: -0.28%
CP(=O)(NC(=O)Nc1ccccc1)Oc1ccccc1 (configuration not stated)	inactive: -13.7%

Compound	inhibition
Cc1cc(C)cc(OP(C)(=O)Nc2ccc(SC(F)(F)F)cc2)c1 (configuration not stated)	active: 48.5%
Cc1cccc(C)c1OP(C)(=O)Nc1ccc(SC(F)(F)F)cc1 (configuration not stated)	inactive: 3.29%
CP(=O)(Nc1ccc(SC(F)(F)F)cc1)Oc1ccc(Cl)cc1 (configuration not stated)	inactive: 3.69%
CP(=O)(Oc1ccccc1)OC(c1ccccc1)C(F)(F)F (configuration not stated)	inactive: 18.3%
COc1ccccc1OP(C)(=O)Nc1ccccc1 (configuration not stated)	inactive: -6.38%
CP(=O)(Nc1ccccc1Br)Oc1ccccc1 (configuration not stated)	inactive: -3.54%
CP(=S)(Nn1cnnc1)Oc1ccccc1 (configuration not stated)	inactive: 12.5%
COc1ccccc1OP(C)(=O)Nc1cc(Cl)ccc1C (configuration not stated)	inactive: -3.5%
COc1ccc(OP(C)(=O)Nc2cccc(F)c2)cc1 (configuration not stated)	inactive: -10.2%
Cc1cc(C)cc(OP(C)(N)=O)c1 (configuration not stated)	inactive: 2.87%
CCOC(=O)c1ccc(NP(C)(=O)Oc2ccccc2)cc1 (configuration not stated)	inactive: -12.8%
COc1ccccc1OP(C)(=O)Nc1ccc(C)cc1 (configuration not stated)	active: 51.2%
Cc1ccc(NP(C)(=O)Oc2ccccc2)c(C)c1 (configuration not stated)	inactive: -6.81%
CC(C)(C)c1ccc(OP(C)(=O)Nc2ccc(SC(F)(F)F)cc2)cc1 (configuration not stated)	inactive: -11.8%
Cc1cccc(C)c1OP(C)(N)=O (configuration not stated)	inactive: -3.35%
O=[N+]([O-])c1ccc2c(c1)C=Nc1ccccc1O2	inactive: 13%
CCN(CC)CCCOC(=O)C(O)(c1ccccc1)c1ccccc1	inactive: 7.83%
CCc1ccc(OP(C)(=O)O)cc1	inactive: 5.4%
CP(=O)(Nc1ccccn1)Oc1ccccc1 (configuration not stated)	inactive: 12.5%
COc1ccccc1OP(C)(=O)Nc1ccc(C)cc1C (configuration not stated)	inactive: 0.79%
O=[N+]([O-])c1cc([N+](=O)[O-])c(Nc2ccccn2)c([N+](=O)[O-])c1	inactive: 0.17%

Compound	inhibition
Cc1c(NP(C)(=O)Oc2ccc(C(C)C)cc2)c(=O)n(-c2ccccc2)n1C (configuration not stated)	inactive: -28.9%
CN(C)CCOC(=O)C(O)(c1ccccc1)C1CCCC1 (configuration not stated)	inactive: 1.36%
COc1ccc(OP(C)(=O)Nc2ccccn2)cc1 (configuration not stated)	inactive: -3.54%
COc1ccccc1OP(C)(=O)Nc1ccc(Br)cc1 (configuration not stated)	inactive: -2.9%
CP(=O)(OCCOc1ccccc1)OCCOc1ccccc1	inactive: 0.99%
CP(=O)(Nc1ccc(Cl)cc1Cl)Oc1ccccc1 (configuration not stated)	inactive: -11.7%
Cc1nc2ccc3ccccc3c2o1.O=[N+]([O-])c1cc([N+](=O)[O-])c(O)c([N+](=O)[O-])c1	inactive: 5.12%
COc1ccc(OP(C)(=O)Nc2ccccc2Br)cc1 (configuration not stated)	inactive: -2.03%
COc1ccccc1OP(C)(=O)Nc1ccc(C)c(C)c1 (configuration not stated)	inactive: -9.24%
Cc1cc(C)cc(OP(C)(=O)Nc2cccc(C(F)(F)F)c2)c1 (configuration not stated)	inactive: 4.75%
CP(=O)(OC12CC3CC(CC(C3)C1)C2)OC12CC3CC(CC(C3)C1)C2	inactive: -9.97%
CCOC(=O)c1ccc(NP(C)(=O)Oc2ccc(Cl)cc2)cc1 (configuration not stated)	inactive: -13.2%
CN(C)C(=O)c1c([N+](=O)[O-])cc([N+](=O)[O-])cc1[N+](=O)[O-]	inactive: -3.44%
CP(=O)(Nc1ccc(Cl)cc1)Oc1ccc(F)cc1 (configuration not stated)	inactive: -1.38%
CC(C)(C)c1ccc(OP(C)(=O)O)cc1	inactive: -5.12%
COc1ccccc1OP(C)(=O)Nc1ccccc1Br (configuration not stated)	inactive: -6.22%
CP(=O)(Oc1ccccc1)N1CCOC1=O (configuration not stated)	inactive: 24.1%
CCc1ccc(OP(C)(=O)Nc2cccnc2)cc1 (configuration not stated)	inactive: -4.97%
O=C(OCCCN1CCCC1)C(O)(c1ccccc1)C1CCCCC1 (configuration not stated)	inactive: 1.35%
CCN(CC)CC(O)COC(=O)C(O)(c1ccccc1)C1CCCCC1 (configuration not stated)	inactive: -4%
COc1ccc(OP(C)(=O)Nc2ccc(Br)cc2)cc1 (configuration not stated)	inactive: -18.6%

Compound	inhibition
Cc1ccccc1NP(C)(=O)Nc1ccccc1C	inactive: 4.52%
CP(=O)(Nc1ccc2c(c1)OCCO2)Oc1ccccc1 (configuration not stated)	inactive: -24.8%
CCOP(C)(=S)SCC(=O)NC(C)(CC)C(=O)O (configuration not stated)	inactive: -3.82%
CP(=O)(Nc1ccc(SC(F)(F)F)cc1)Oc1ccc(F)cc1 (configuration not stated)	inactive: 1.47%
O=[N+]([O-])c1cc([N+](=O)[O-])c(NCC2CCS(=O)(=O)C2)c([N+](=O)[O-])c1 (configuration not stated)	inactive: -0.22%
Cc1cc(-c2cccc3ccccc23)c(C)cn1.O=[N+]([O-])c1cc([N+](=O)[O-])c(O)c([N+](=O)[O-])c1	inactive: -7.42%
O=[N+]([O-])c1ccc(OP2(=O)COCCO2)cc1 (configuration not stated)	inactive: 1.82%
CN(C)CCOC(=O)C(O)(c1ccccc1)C1CCCCC1 (configuration not stated)	inactive: -11.3%
COc1ccc(OP(C)(=O)Nc2cccc(Br)c2)cc1 (configuration not stated)	inactive: 3.8%
CCCCCOc1ccc(NP(C)(=O)Oc2ccc(Cl)cc2Cl)cc1 (configuration not stated)	inactive: -1.82%
CP(=O)(Nc1ccccc1)Oc1ccc(F)cc1 (configuration not stated)	inactive: -4.68%
CCN(CC)CCCOC(=O)C(O)(c1ccccc1)C1CCCCC1 (configuration not stated)	inactive: -12.9%
COc1ccc(OP(C)(=O)Nc2ccc(SC(F)(F)F)cc2)cc1 (configuration not stated)	inactive: -15.1%
CCOC(=O)c1ccc(NP(C)(=O)Oc2ccc(F)cc2)cc1 (configuration not stated)	inactive: -9%
COc1ccc2c(c1O)-c1c(O)c(OC)cc3c1[C@H](C2)[N+](C)(C)CC3.O=[N+]([O-])c1cc([N+](=O)[O-])c([O-])c([N+](=O)[O-])c1[O-]	inactive: 5.49%
O=C(OCCN1CCN(CCOCc2ccccc2)CC1)C(O)(c1ccccc1)c1ccccc1	inactive: -8.5%
O=C(OC1CN2CCC1CC2)c1ccc([N+](=O)[O-])cc1 (configuration not stated)	inactive: -5.58%
CC(C)c1ccc(OP(C)(=O)Nc2ccc(SC(F)(F)F)cc2)cc1 (configuration not stated)	inactive: -8.06%
CP(=O)(Nc1ccccc1F)Oc1ccccc1 (configuration not stated)	inactive: 6.65%
